# Test results taken from US8742100B2, “Small molecule inhibitors of isoprenylcysteine carboxyl methyltransferase with potential anticancer activity” (National University of Singapore, priority 2009, dated 2014).
# Tested on: MDA-MB-231 human breast cells
# Assay: Proliferation assay, CellTiter 96 AQueous One Solution (MTS)
# Assay type: cell-based
# Conditions: MDA-MB-231, 72 h, MDA-MB-231 cells, mean of two separate determinations, ±SD where more than two, read-out: IC50 Antiproliferative activity
# Procedure: (§1) The MDA-MB-231 human breast cells were maintained at 37° C. with 5% CO2 in DMEM (Sigma) supplemented with 10% fetal bovine serum (FBS, Hyclone), 50 U/ml penicillin (Gibco), and 50 μg/ml streptomycin (Gibco). […] The relative number of the live cells was determined using the CellTiter® 96 AQueous One Solution Cell Proliferation Assay (Promega). Each condition was performed in triplicate, and data presented represent that obtained from at least two separate experiments.
# as §1, with “to date were” for “represent that”, “one determination.” for “at least two separate experiments.”
compound,measurement,value
"CCCCCCCCn1cc(CC(N)=O)c2cc(-c3cccc(C)c3)ccc21 [cysmethynil, 2-(1-octyl-5-m-tolyl-1H-indol-3-yl) acetamide, reference compound]",IC50,21.8 µM
